Test results reported in patent US20100311718A1, “Treatment of Psychoses with Dibenzothiazepine Antipsychotic” (AstraZeneca AB, priority 2004, published 2010).
Where a name gives a salt, the structure may show the parent alone. Read-outs that look alike come from different tables or passages of the source. Marks after values point to notes of the source that are not given here.

Key:
[1] = system: patients with bipolar depression; conditions: Bipolar II, ITT population
[2] = system: patients with bipolar depression; conditions: Week 8 LOCF, 300 mg
[3] = system: patients with bipolar depression; conditions: Week 8 LOCF

SMILES: OCCOCCN1CCN(C2=Nc3ccccc3Sc3ccccc32)CC1 [quetiapine, 2-[2-(4-dibenzo [b,f] 1,4]thiazepin-11-yl-1-piperazinyl)ethoxy]-ethanol fumarate]
- Change in MADRS, Mean (SD) ([1]; 300 mg/day): −15.2 (10.2)
- Change in MADRS, Mean (SD) ([1]; 600 mg/day): −13.9 (10.2)
- Q-LES-Q change (Δ), Mean (SD) [2]: 10.2 (10.7)*
- Sleep component: Sleep efficiency, Mean (SD) ([3]; 300 mg): 0.6 (1.0)
- Sleep component: Sleep efficiency, Mean (SD) ([3]; 600 mg): 0.7 (1.1)
